Measurements as given in patent US6825209B2 (dated 2004).

By UniProt entry, the sequences of proteins in these tests, tags left out.
UniProt P20272, whole entry: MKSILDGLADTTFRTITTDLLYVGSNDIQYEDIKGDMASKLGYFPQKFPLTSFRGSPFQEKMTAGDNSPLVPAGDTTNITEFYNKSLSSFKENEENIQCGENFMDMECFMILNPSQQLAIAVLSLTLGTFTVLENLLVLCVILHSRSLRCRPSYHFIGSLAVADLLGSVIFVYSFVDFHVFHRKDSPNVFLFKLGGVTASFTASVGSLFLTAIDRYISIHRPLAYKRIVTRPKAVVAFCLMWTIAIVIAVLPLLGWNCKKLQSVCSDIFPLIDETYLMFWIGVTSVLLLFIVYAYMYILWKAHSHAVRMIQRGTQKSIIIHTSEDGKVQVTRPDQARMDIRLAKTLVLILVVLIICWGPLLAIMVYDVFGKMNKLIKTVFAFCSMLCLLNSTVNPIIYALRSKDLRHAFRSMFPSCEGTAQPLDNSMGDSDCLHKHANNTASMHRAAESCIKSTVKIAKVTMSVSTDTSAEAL

Assays:
CB1 receptor = CB1 receptor (Rattus norvegicus, UniProt P20272); assay: Radioligand displacement in whole rat brain (CB1) membrane preparations
[1] = target: G-protein-linked cannabinoid receptors (Rattus norvegicus, UniProt P20272); assay: GTP-γ-[35S] binding in whole rat brain; assay type: biochemical; conditions: read-out: EC50, GTP-γ-[35S] in Whole Rat Brain; whole rat brain membranes; inverse agonist/antagonist activity

Substance SR144528 [reference compound] has a Ki (CB1 receptor; read-out: Ki, displacement of 3H-CP55940, whole rat brain membranes, radioligand 3H-CP55940, Tables 1 and 2) of 74.1 nM, a Ki (CB1 receptor; read-out: Ki, displacement of 3H-CP55940, whole rat brain, 3H-CP55940, Table 4, parallel synthesis analogs, n = 1, concentration assumes 100% yield) of 74.1 nM and a Ki (CB1 receptor; read-out: Ki, displacement of 3H-SR141716A, whole rat brain membranes, radioligand 3H-SR141716A, Tables 1 and 2) of 81.7 nM. The Ki (CB1 receptor; read-out: Ki, displacement of 3H-SR141716A, whole rat brain, 3H-SR141716A, Table 4, parallel synthesis analogs, n = 1, concentration assumes 100% yield) was 81.7 nM and the EC50 [1] was 8140 nM.

Read-outs that look alike come from different tables or passages of the source.
